Source: patent publication US4780412A, “Fibrinolytic enzymes produced from established non-cancerous cell lines” (priority 1982, dated 1988)
Structures can show the parent of a compound that is named as a salt.

By UniProt entry, the sequences of proteins in these tests, tags left out. Residues count along the entry.
UniProt H0W0Z7, 33-559: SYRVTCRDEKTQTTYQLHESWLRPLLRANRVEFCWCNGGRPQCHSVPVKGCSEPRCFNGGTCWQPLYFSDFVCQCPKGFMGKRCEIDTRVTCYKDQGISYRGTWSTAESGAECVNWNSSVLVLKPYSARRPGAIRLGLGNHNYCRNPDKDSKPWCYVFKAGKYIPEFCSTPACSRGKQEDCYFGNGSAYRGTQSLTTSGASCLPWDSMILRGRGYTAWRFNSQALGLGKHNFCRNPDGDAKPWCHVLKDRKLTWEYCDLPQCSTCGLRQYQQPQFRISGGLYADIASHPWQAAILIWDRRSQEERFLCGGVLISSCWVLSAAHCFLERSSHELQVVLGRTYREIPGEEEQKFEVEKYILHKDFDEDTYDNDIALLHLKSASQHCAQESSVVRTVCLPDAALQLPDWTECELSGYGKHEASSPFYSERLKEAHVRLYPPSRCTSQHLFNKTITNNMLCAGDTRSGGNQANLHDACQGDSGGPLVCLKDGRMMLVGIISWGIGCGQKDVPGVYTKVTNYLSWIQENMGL

Molecular target: T1, GPK derived enzyme, partially purified (fibrinolytic enzyme / plasminogen activator from cell line GPK, CNCMI-222) (Cavia porcellus, UniProt H0W0Z7)
T1 construct: zinc chelate agarose, partially purified from culture supernatant
Experiment: Amidolytic activity on chromogenic substrates (release of p-nitroaniline at 405 nm)
Type: biochemical
Description: The amidolytic activity of the GPK derived enzyme was determined using various chromogenic substrates. […] Z

Compound	Vmax (pH 9.0 (line above), ionic strength I 0.0035, substrate concentration by weight) [M/min/M enzyme]	Vmax (pH 8.8, ionic strength I 0.0037, 0.05M Tris-HCl, 37° C.) [M/min/M enzyme]
CC(C)[C@H](NC(=O)c1ccccc1)C(=O)NCC(=O)N[C@@H](CCCNC(=N)N)C(=O)Nc1ccc([N+](=O)[O-])cc1 [Benzoyl-Val--Gly--Arg--pNA.HCl]	1.387	–
N=C(N)NCCC[C@H](NC(=O)[C@H](CCC(=O)O)NC(=O)[C@@H](N)CCC(=O)O)C(=O)Nc1ccc([N+](=O)[O-])cc1 [Glu--Glu--Arg--pNA.HCl]	–	5.36
